In patent US20240308992A1 (Biopolar Youtang(Guangdong) Pharmaceutical Co., Ltd., priority 2021, published 2024) one finds IC50 data, which are given here for 2 molecules.

Amino acid sequences for entries named in this document (tags omitted).
UniProt O94768, whole entry: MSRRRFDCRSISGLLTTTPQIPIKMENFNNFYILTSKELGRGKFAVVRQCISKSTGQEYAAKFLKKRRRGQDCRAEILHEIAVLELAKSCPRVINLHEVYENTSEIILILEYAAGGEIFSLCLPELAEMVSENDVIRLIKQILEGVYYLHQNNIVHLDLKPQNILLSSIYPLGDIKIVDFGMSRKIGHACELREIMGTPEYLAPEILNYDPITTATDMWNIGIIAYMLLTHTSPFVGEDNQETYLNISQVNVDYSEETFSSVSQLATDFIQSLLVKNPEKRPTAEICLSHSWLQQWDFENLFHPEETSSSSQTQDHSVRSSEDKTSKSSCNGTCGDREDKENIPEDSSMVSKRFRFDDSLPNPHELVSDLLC

Molecules are shown by their SMILES. pIC50: −log10 of the molar value.

This test concerns the target Drak2 (Homo sapiens, UniProt O94768). The experiment in a line: Drak2 activity test, ADP-Glo kinase assay (Promega). The test is classed as biochemical. Particulars: read-out: IC50_Drak2, inhibition of Drak2 kinase activity, 2 h room temperature, activity range classes.

For `CCCCC(=O)Nc1ccc(-c2cncc(-c3ccc(C(=O)N(C)C4CCN(C)CC4)c(OC)c3)n2)s1`, the pIC50 was 6.00 to 7.00. As to `CCCCC(=O)Nc1cc(-c2cncc(-c3ccc(C(=O)N(C)C4CCN(C)CC4)c(OC)c3)n2)cs1`, the pIC50 was 6.00 to 7.00.
